Holding throughout (experiment): SPR
Conditions in all cases: domain or fragment

For test [1], the target named is A. nidulans CCAAT-binding complex, conserved core domains of HapB, HapC and HapE (HapB^231-293, HapC^42-132, HapE^47-164) (Aspergillus nidulans).
Test [2] has the same target. This is another data set of the same source.
Test [3] shares this target. The source holds these as a separate data set.
Test [4] has the same target. The source holds these as a separate data set.

By Kd is commonly meant a measure of binding affinity in units of concentration. On to A. nidulans HapX^27-141, for which the dissociation constant (Kd) came out at 3.08 nM in test [1] and 18.9 nM in test [2].
Consider A. nidulans HapX^36-141, for which the values for the Kd in test [2] and in test [3] were 16.8 nM and 2.26 nM, respectively.
On to A. nidulans HapX^36-133, for which the Kd turned out to be 23.1 nM in test [4] and 60.3 nM in test [2].

Source of the values: article doi:10.1101/2021.07.15.452465.
